Measured values as given in ChEMBL document CHEMBL4619828, “Discovery of Potent and Orally Bioavailable Small Molecule Antagonists of Toll-like Receptors 7/8/9 (TLR7/8/9)” (ACS Med Chem Lett, 2020).

Target: T1, Toll-like receptor 9 (Homo sapiens) (UniProt Q9NR96)
T1 sequence (whole entry): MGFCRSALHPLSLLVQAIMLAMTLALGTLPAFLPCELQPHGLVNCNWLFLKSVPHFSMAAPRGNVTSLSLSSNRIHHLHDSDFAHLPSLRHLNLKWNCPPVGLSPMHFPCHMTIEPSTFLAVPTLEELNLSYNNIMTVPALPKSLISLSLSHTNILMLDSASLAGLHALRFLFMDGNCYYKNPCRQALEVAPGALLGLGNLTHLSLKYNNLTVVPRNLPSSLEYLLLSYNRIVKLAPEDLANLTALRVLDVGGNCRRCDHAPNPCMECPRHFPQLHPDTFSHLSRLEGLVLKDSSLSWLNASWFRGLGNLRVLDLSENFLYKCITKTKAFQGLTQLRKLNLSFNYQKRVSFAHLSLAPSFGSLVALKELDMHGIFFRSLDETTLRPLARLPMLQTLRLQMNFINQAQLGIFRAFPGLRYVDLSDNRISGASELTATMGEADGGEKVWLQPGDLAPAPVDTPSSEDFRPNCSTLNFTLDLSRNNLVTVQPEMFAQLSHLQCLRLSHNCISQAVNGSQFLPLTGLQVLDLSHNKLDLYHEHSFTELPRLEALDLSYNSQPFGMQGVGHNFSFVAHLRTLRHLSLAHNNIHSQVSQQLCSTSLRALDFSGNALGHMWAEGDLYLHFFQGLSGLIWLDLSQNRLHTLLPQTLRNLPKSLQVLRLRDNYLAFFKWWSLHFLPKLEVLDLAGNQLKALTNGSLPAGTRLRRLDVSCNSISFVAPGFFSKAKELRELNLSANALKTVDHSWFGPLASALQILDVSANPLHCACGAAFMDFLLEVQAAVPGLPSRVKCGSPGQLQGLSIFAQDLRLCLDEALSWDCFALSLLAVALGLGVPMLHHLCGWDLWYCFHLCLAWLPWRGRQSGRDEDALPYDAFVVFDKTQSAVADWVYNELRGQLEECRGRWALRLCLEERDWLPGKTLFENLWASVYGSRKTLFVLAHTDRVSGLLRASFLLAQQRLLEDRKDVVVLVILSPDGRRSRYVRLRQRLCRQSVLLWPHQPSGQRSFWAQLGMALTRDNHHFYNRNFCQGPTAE
Test: Antagonist activity at human TLR9 overexpressed in HEK-Blue cells assessed as inhibition of ODN2006-induced NFkappaB and AP-1 activation at 10 uM preincubated for 30 mins followed by ODN2006 stimulation measured after 22 hrs by quanti-blue SEAP assay relative to control
Assay type: cell-based

inhibition: 23%
SMILES: CNCCN1CCC(c2ccc3[nH]c(-c4ccccc4Cl)c(F)c3c2)CC1
